Assay results taken from US7963935B2, “Microprojection array having a beneficial agent containing coating” (Alza Corporation, priority 2001, dated 2011).

Experiment: Dry film/coating on titanium foil: inspection and redissolution/rehydration in water
Type: physicochemical
Conditions: film dried on titanium foil at room temperature about 1 hour
Procedure: In order to test the ability of aqueous albumin solutions to form solid coatings on titanium microprojections, a coated microprojection array was prepared in the following manner. […] To aliquots of these solutions, fluorescein, a marker added for subsequent visualization of the dried coating, was added at a final concentration of 1 millimolar. A 1-microliter drop of this solution was spread on titanium foil having an area of about one centimeter square. The solution was allowed to dry at room temperature for about 1 hour.
A coated microprojection array was prepared in the following manner. […] To this suspension, fluorescein, a marker added for subsequent visualization, was added at a final concentration of 1 millimolar. A 1 microliter drop of this suspension was spread on titanium foil having an area of 1 square centimeter and allowed to dry at room temperature for about an hour.
To 50 microliters of this solution, 50 microliters of a 40 percent by weight aqueous solution of lidocaine HCl was added. A control solution containing no albumin was also prepared. 1-microliter drops of these solutions were spread on titanium foil having an area of approximately 1 square centimeter. The solutions were allowed to air dry at room temperature for about 1 hour.

human albumin: Human albumin (Sigma, Fraction V) utilized as a model biocompatible carrier
redissolution of the dry film/coating in water: fast and complete
